Laboratory results reported in patent US12371472B2, “Multimeric IL-15 soluble fusion molecules and methods of making and using same” (Altor BioScience, LLC., priority 2010, dated 2025).

System: 5T33P and MOPC-315P cells
Experiment: Direct effect on myeloma cell viability and apoptosis in vitro
Assay type: cell-based, murine

IFN-γ: interferon-γ tested on 5T33P cells in vitro
direct effect on tumor cell numbers and apoptosis in vitro: no direct effect
